Measured values reported in patent publication EP1005446B1, “N-AROYLPHENYLALANINE DERIVATIVES” (priority 1997, dated 1999).

Sequences of proteins named here, by UniProt entry; tags and fusion partners are left off. Residues count along the entry.
UniProt P05556, 21-798 limits assumed: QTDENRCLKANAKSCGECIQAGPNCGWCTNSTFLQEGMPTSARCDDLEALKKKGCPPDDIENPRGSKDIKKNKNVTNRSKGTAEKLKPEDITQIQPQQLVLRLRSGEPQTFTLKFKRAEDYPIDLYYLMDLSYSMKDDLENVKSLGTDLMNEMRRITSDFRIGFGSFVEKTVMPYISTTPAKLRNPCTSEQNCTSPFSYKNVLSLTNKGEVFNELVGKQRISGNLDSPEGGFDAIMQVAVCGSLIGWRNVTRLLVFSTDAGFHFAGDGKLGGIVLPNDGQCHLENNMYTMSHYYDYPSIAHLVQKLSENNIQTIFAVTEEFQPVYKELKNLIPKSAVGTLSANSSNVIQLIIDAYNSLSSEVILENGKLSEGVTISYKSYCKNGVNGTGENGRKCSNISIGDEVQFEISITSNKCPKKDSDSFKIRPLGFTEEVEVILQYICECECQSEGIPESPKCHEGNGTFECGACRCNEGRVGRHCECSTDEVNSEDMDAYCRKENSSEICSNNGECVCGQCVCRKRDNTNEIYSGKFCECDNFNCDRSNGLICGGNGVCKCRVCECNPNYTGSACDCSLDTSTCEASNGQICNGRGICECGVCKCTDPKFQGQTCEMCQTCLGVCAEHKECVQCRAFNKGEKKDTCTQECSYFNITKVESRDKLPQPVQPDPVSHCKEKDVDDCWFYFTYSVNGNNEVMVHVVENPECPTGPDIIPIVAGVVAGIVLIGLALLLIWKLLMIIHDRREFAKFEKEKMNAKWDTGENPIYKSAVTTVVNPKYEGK
UniProt P13612, 34-1032 limits assumed: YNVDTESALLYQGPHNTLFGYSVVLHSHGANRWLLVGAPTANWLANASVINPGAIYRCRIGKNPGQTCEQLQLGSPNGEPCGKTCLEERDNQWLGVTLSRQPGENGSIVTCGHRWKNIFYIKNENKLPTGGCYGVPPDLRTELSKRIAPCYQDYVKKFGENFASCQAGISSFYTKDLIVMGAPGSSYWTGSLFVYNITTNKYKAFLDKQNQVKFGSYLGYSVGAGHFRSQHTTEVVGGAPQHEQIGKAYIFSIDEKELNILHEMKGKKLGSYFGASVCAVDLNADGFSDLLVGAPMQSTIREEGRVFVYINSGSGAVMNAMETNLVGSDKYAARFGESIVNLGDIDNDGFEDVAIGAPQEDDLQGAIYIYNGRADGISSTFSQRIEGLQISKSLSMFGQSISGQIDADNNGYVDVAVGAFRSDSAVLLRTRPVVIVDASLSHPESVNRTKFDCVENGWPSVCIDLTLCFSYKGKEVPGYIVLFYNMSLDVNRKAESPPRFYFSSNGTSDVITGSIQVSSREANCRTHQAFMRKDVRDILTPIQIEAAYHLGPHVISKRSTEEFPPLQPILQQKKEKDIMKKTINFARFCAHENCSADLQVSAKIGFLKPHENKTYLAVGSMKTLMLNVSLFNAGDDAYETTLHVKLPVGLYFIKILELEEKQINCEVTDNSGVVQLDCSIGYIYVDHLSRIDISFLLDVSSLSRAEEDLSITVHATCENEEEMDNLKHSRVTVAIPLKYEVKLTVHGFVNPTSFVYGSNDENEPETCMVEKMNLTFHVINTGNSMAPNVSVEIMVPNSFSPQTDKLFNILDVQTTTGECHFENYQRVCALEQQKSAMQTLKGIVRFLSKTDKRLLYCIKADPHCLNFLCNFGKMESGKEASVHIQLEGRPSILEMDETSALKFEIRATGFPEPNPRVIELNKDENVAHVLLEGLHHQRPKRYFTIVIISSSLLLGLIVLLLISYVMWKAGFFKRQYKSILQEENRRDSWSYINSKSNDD

Target: T1, VLA-4 (α4β1 integrin) (Homo sapiens, UniProt P05556+P13612)
Assay: VLA-4 / VCAM-1 Screening Assay (solid-phase, dual antibody ELISA)
Conditions: read-out: IC50 nM; inhibition of binding of Ramos cell-derived VLA-4 to immobilized recombinant human VCAM-1

Compared with `Cc1cc(C)c(S(=O)(=O)Nc2ccc(C[C@H](NC(=O)C3(C)CC3(Cl)Cl)C(=O)O)cc2)c(C)c1` (stereo partly drawn), `CC1(C)C2CCC1(C)C(C(=O)O)C2C(=O)N[C@@H](Cc1ccc(NC(=O)c2ccnc3ccccc23)cc1)C(=O)O` (stereo partly drawn) is 3.2-fold lower in IC50: 43 nM for the first, 13.6 nM for the second. The second is the more potent here.

First: COCCC1(C(=O)N[C@@H](Cc2ccc(N3C(=O)[C@@H](CC(C)C)N(C(C)=O)C3c3ccccc3)cc2)C(=O)O)CCCC1 (single isomer, unassigned) [134]
Second: COCCC1(C(=O)N[C@@H](Cc2ccc(N3C(=O)[C@H](CC(C)C)N(C(C)=O)C3c3ccccc3)cc2)C(=O)O)CCCC1 (single isomer, unassigned) [Example 128]
The IC50 of the first is 26-fold lower: 0.19 nM for the first, 5 nM for the second.

First: O=C(CCN1CCCCC1)Nc1ccc(C[C@H](NC(=O)C23CC4CC(CC(C4)C2)C3)C(=O)O)cc1
Second: COc1ccc(CC2(C(=O)N[C@@H](Cc3ccc(NC(=O)CCN4CCCCC4)cc3)C(=O)O)CCCC2)cc1
The IC50 of the first is 7.6-fold higher: 7.3 nM for the first, 0.96 nM for the second. The second is the more potent here.

Going from `COCCC1(C(=O)N[C@@H](Cc2ccc(N3C(=O)[C@@H](CC(C)C)N(C(C)=O)C3c3ccccc3)cc2)C(=O)O)CCCC1` (single isomer, unassigned) [135] to `COCCC1(C(=O)N[C@@H](Cc2ccc(N3C(=O)[C@H](CC(C)C)N(C(C)=O)C3c3ccccc3)cc2)C(=O)O)CCCC1` (single isomer, unassigned) [129], the IC50 rises from 17 nM to 153 nM (9-fold). The first is the more potent here.

Compound `O=C(Cc1ccccc1)NCCC1(C(=O)N[C@@H](Cc2ccc(NC(=O)c3c(Cl)cccc3Cl)cc2)C(=O)O)CCCC1` has an IC50 of 2.5 nM.

Same assay, conditions: read-out: IC50 nM; inhibition of binding of Ramos cell-derived VLA-4 to immobilized recombinant human VCAM-1; tested form: Na salt

Compared with `O=C(Nc1ccc(C[C@H](NC(=O)C2(c3ccccc3)CCCC2)C(=O)O)cc1)c1ccc[n+]([O-])c1`, `O=C(Nc1ccc(C[C@H](NC(=O)C2(c3ccccc3)CCCC2)C(=O)O)cc1)c1ccccc1` is 6.3-fold higher in IC50: 3.6 nM for the first, 22.6 nM for the second. The first is the more potent here.

Target: T1, VLA-4 (α4β1 integrin)
Assay: Ramos (VLA-4) / VCAM-1 Cell-Based Screening Assay (Ramos-VCAM-1 cell adhesion assay)
Conditions: read-out: IC50 in Ramos Cell Based Assay; Ramos cells binding to immobilized VCAM-1

`COc1ccc(C[C@@H]2C(=O)N(c3ccc(C[C@H](NC(=O)C4(CCNC(C)=O)CCCC4)C(=O)O)cc3)C(c3ccccc3)N2C(=O)CCC(=O)O)cc1` (single isomer, unassigned) showed an IC50 of 1.8 nM.
